# Data: PMC9496819 (Cancers, 2022)
# System: HOSE6.3 cells
# Test: Presto Blue cell viability assay in non-tumoral cells, single drugs and Paclitaxel combinations (Chou–Talalay, Bliss, HSA analysis)
# Conditions: HOSE6.3, 48 h, 0.25 x IC50 of each drug, alone or combined
substance,measurement,value
Ivermectin,Cellular viability (%) Media,100.990%
